{"source": "patent US6809079B2", "about": "“Compositions and methods for treating female sexual arousal disorder using hydrophobic-calcitonin gene related peptide” (VasoGenix Pharmaceuticals, Inc., priority 2002, dated 2004)", "tested_on": "healthy male volunteers", "experiment": "Topical application of hydrophobic-CGRP cream to induce erections, single blind, placebo controlled study", "assay_type": "in vivo, humans", "experimental": "The study designed was a single blind, placebo controlled, single-dose, single and multiple application study to evaluate the safety and efficacy of CGRP-linolenic acid conjugate (hydrophobic-CGRP) applied topically to induce erections in six healthy male volunteers. Formulation A consisted of hydrophobic-CGRP mixed with Aquaphore cream (petroleum jelly/water emulsion) to a concentration of 10.18 μg/mL, formulation B, the placebo, was the Aquaphore vehicle. Six subjects received both formulation A and formulation B, and were instructed to apply each formulation on successive days (i.e. formulation A on one day, and formulation B the next day), and to do this on 3 separate occasions (n=18 applications). For each application, the subjects applied 0.5-1.0 mL of the cream to the ventral surface of the penis, and gently worked the cream into the skin without any additional manipulation or the assistance of visual aids. The subjects were instructed to determine if an erection suitable for intercourse was induced, time to onset of erection, and duration of erection for each application and write down the outcome. Two subjects who obtained consistent erections with formulation A in the first study, were asked to reapply the cream, and then after the erection subsided to immediately apply the cream 2 more times immediately following an erection (n=6 applications). […] Average time of onset of was 10 minutes for both formulations, with the erections lasting 15-40 minutes (averaging 20 minutes) for hydrophobic-CGRP versus a few minutes for placebo.\nThe results observed were due to the pharmacological effects of CGRP. […] Currently there are no products on the market or in development that permit unrestricted re-application due to formulation irritation, systemic side effects, and tachyphylaxis. An optimized formulation containing specific dermal penetration enhancers has the potential to increase efficacy, decrease the time of onset, and extend the duration of an erection, as well as permit re-application.", "key": {"[1]": {"details": "multiple applications, two subjects"}, "[2]": {"details": "single application subjects, topical cream"}, "[3]": {"details": "topical application, healthy male volunteers"}}}
{"substance": "hydrophobic-CGRP: calcitonin gene-related peptide conjugated to linolenic acid as an ester; tested as formulation A in Aquaphore cream at 10.18 μg/mL", "values": [{"measurement": "repeat erections suitable for intercourse (share of applications)", "setting": "multiple applications, 5 of 6 applications, two subjects, reapplied immediately after erection subsided", "value": 83, "unit": "%"}, {"measurement": "duration of erection", "setting": "[1]", "value": "greater than 10 minutes"}, {"measurement": "tachyphylaxis in response to multiple applications", "setting": "[1]", "value": "no tachyphylaxis"}, {"measurement": "time of onset of erection", "setting": "[1]", "value": 10, "unit": "min"}, {"measurement": "average time of onset of erection", "setting": "[2]", "value": 10, "unit": "min"}, {"measurement": "duration of erection (average)", "setting": "[2]", "value": 20, "unit": "min"}, {"measurement": "duration of erection (range)", "setting": "[2]", "value": "15 to 40", "unit": "min"}, {"measurement": "erections achieved (share of applications)", "setting": "single application, 15 of 18 applications, six subjects, 0.5-1.0 mL cream of 10.18 μg/mL, topical to ventral surface of penis", "value": 83, "unit": "%"}, {"measurement": "adverse effects observed", "setting": "topical application, all subjects", "value": "mild, localized, transient flushing of the penile skin"}, {"measurement": "local sensations reported (pain, burning, tingling, warmth)", "setting": "[3]", "value": "no pain, burning, tingling or warm sensations were reported"}, {"measurement": "systemic adverse effects", "setting": "[3]", "value": "systemic adverse effects were observed"}]}
